pIC50: −log10 of the molar value.
Biological target: Recombinant human renin (Homo sapiens, UniProt P00797)
Assay: Inhibition of renin (fluorogenic peptide substrate)
Assay type: biochemical
Settings: read-out: IC50 values for inhibition of renin (fluorogenic peptide substrate); recombinant human renin 5 nM, substrate 10 μM, 2 h at room temperature, Tris buffer pH 8; compounds tested as the obtained salt; tested form: 2HCl

Amino acid sequences for entries named in this document (tags omitted). Residues count along the entry.
UniProt P00797, 67-406 limits assumed: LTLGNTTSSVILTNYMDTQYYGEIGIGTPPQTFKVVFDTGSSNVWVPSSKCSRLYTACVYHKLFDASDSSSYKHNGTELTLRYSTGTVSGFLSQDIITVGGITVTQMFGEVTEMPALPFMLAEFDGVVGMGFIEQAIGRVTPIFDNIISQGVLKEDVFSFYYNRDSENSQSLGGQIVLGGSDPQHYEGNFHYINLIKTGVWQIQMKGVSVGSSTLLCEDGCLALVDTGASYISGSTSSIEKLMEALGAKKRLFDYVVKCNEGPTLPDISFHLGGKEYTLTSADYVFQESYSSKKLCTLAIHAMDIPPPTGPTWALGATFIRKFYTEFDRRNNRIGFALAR

Cc1cccc(C)c1Oc1c(C(=O)N2CCNCC2)c2ncccc2n1-c1ccc(F)cc1
pIC50: 7.62

— patent US8580813B2, “Cyclic azaindole-3-carboxamides, their preparation and their use as pharmaceuticals” (Sanofi, priority 2008, dated 2013)
